Assay results taken from US9023876B2, “Compounds and methods for regulating integrins” (Adhaere Pharmaceuticals, Inc., priority 2010, dated 2015).

What was measured:
WT B6 mice = assay: Thioglycollate-induced peritonitis, WT mice; conditions: given 30 min prior to thioglycollate, 4 h, vs vehicle
Description: Thioglycollate-induced peritonitis was performed as previously described, using 8-10 week old WT B6 and CD11b^−/− B6 mice. Leukadherin agonists were administered thirty min prior to intra peritoneal (i.p.) thioglycollate (3%) injection. LA1 and LA2 ([…] of 20 mM solution in saline) were administered intra venously (i.v.). LA3 was administered i.p. (1 mL of 20 mM solution in saline). To evaluate peritoneal neutrophil recruitment, […], the peritoneal lavage was collected and the number of emigrated neutrophils was quantified using double positive cells for GR-1 and Mac-1 staining as described.
To determine the effects of LA1-3 on inflammatory responses in vivo, we monitored their effects on neutrophil recruitment upon acute thioglycollate-induced peritonitis in mice.

[1] = target: mutant integrin CD11bE320A/CD18 (Homo sapiens, UniProt P11215, E336A); assay: Adhesion of K562 E320A cells to immobilized Fg
Description: K562 cells (ATCC) stably transfected with wild-type integrin CD11b/CD18 (K562 CD11b/CD18) have been described previously. Mutant CD11bE320A has been described previously. K562 cells stably transfected with mutant integrin CD11bE320A/CD18 (K562 E320A) were generated according to literature protocols. All cell lines were maintained in Iscove's Modified Dulbecco's Medium (IMDM) supplemented with 10% heat-inactivated fetal bovine serum, 50 IU/ml penicillin and streptomycin and 0.5 mg/ml G418.
Cell adhesion assays with immobilized ligands were performed as previously described. Assays with all different K562 cell lines (K562, K562 CD11b/CD18 and K562 E320A) were performed in an identical fashion. Briefly, 384-well Highbind microtiter plates were coated with a 30 μL solution of ligand in Phosphate Buffered Saline, pH 7.4 containing 1 mM each of Ca^2+ and Mg^2+ ions (PBS^++) overnight at 4° C. Ligand Fg was coated at a concentration of […] and iC3b at […]. Heterodimer specific mAb IB4 (ascites) was coated at a 1:100 dilution. […] Cells remaining adherent were fixed using formaldehyde and were quantitated using imaging microscopy, as previously described. […]

murine neutrophils = assay: Neutrophil chemotaxis assay in Zigmond chamber, fMLP gradient; conditions: vs DMSO
Description: Neutrophil chemotaxis on 2D surfaces was performed using Zigmond chamber (Neuro Probe) as described on acid cleaned glass or Fg coated glass coverslips. Cell migration was allowed in a gradient of […] bacterial peptide formyl-methionyl-leucyl-phenylalanine (fMLP, Sigma), in the absence or presence of leukadherins ([…]). Cell migration was recorded at every 30 sec interval for a period of 25 min using a Nikon Eclipse 90i inverted microscope. Images were acquired with a Nikon DS camera using a PLAN APO 20X differential interference contrast (DIC) microscopy objective and captured into Nikon Imaging software. Analysis of neutrophil migration was performed with the motile population that had moved more than 10 μm using ImageJ software (NIH, USA) with manual cell tracking using the Ibidi chemotaxis and migration tool plugin for ImageJ. Migration velocity and the total displacement (distance from origin) were also analyzed. Quantitation was performed using at least 50 independent cells per condition from at least three independent experiments.
Leukocyte chemotaxis on 2D surfaces involves integrin-mediated sequential adhesion and de-adhesion steps [77]. […] To test if increased cell-adhesion by leukaderins affects cell migration, we used murine neutrophils chemotaxing in response to a gradient of chemokine peptide formyl-Met-Leu-Phe (fMLP). […] However, treatment with LA1, LA2 or LA3 lead to a significant decrease in the lateral migration and the migration velocity of these cells (FIG. 2A-C). […] Yet, leukadherins reduced the efficiency of trans-endothelial migration (TEM) by THP-1 cells across a TNFα-activated HUVEC layer in vitro by increasing cell adhesion to the HUVEC layer.

integrin CD11b/CD18 = integrin CD11b/CD18 (Homo sapiens, UniProt P11215); assay: K562 CD11b/CD18 cell adhesion to immobilized iC3b; conditions: increasing amounts of compound
Description: Cell adhesion assays with immobilized ligands were performed as previously described. Assays with all different K562 cell lines (K562, K562 CD11b/CD18 and K562 E320A) were performed in an identical fashion. Briefly, 384-well Highbind microtiter plates were coated with a 30 μL solution of ligand in Phosphate Buffered Saline, pH 7.4 containing 1 mM each of Ca^2+ and Mg^2+ ions (PBS^++) overnight at 4° C. Ligand Fg was coated at a concentration of […] and iC3b at […]. Heterodimer specific mAb IB4 (ascites) was coated at a 1:100 dilution. Subsequently, the non-specific sites in the wells were blocked by incubation with 1% non-fat milk in Tris Buffered Saline (TBS), pH 7.4, at room temperature for 1 h, except for the neutrophil assay, where the wells were blocked with TBS containing 1% gelatin. Next, the wells were washed three times with TBS. K562 cells were suspended in the assay buffer (TBS containing 1 mM each of Ca^2+ and Mg^2+ ions (TBS^++)) and were transferred to the ligand-coated wells (30,000 cells/well). Stock solution of the leukadherin family of small molecule agonists was prepared by dissolving the compounds in DMSO at a concentration of 2-10 mM. Final concentration of DMSO in the assay was approximately 1%. […] Cells remaining adherent were fixed using formaldehyde and were quantitated using imaging microscopy, as previously described. […]

K562 CD11b/CD18 cells = assay: Cell viability assay (MTS); conditions: 24 h; concentrations as high as 50 μM
Description: Cell viability assay was performed as described. Briefly, K562 CD11b/CD18 cells (10,000/well) were incubated in 96 well plates (Corning, Corning, N.Y.) with increasing amounts of indicated compound for 24 h. The number of viable cells after 24 h was determined by using MTS reagent according to manufacturers protocol (Promega, Madison, Wis.) and using Spectramax M5 spectrophotometer (Molecular Devices) for reading of the assay plates. Data presented is representative of at least two independent experiments.

CCOC(=O)CN1C(=O)SC(=Cc2ccc(-c3ccc(Cl)cc3Cl)o2)C1=O
reduction of peritoneal neutrophil accumulation (WT B6 mice): 55% | binding of K562 E320A to Fg [1]: selectively increased | lateral migration of neutrophils (murine neutrophils): significant decrease | migration velocity of neutrophils (murine neutrophils): significant decrease | K562 CD11b/CD18 cells adhering to immobilized iC3b (integrin CD11b/CD18): increase binding of CD11b/CD18 to iC3b in a dose-dependent fashion | in vitro cytotoxicity to K562 cells (K562 CD11b/CD18 cells): no cytotoxicity

O=C(O)c1ccc(-c2ccc(C=C3SC(=O)N(c4ccccc4)C3=O)o2)cc1
reduction of peritoneal neutrophil accumulation (WT B6 mice): 65% | binding of K562 E320A to Fg [1]: selectively increased | lateral migration of neutrophils (murine neutrophils): significant decrease | migration velocity of neutrophils (murine neutrophils): significant decrease | K562 CD11b/CD18 cells adhering to immobilized iC3b (integrin CD11b/CD18): increase binding of CD11b/CD18 to iC3b in a dose-dependent fashion | in vitro cytotoxicity to K562 cells (K562 CD11b/CD18 cells): no cytotoxicity
